System: Epidermal Growth Factor (EGF)

With “Epidermal Growth Factor Receptor Kinase (EGF-RK) isolated from human A 431 carcinoma cells (Messrs. Sigma)” the “activation of EGF-RK by EGF, read as phosphorylation of Poly-(Glu, Tyr) 4:1 (RIfS)” value was “The use of Epidermal Growth Factor did not confer any recognisable advantage”.
